From patent publication US20050238634A1

Settings: radioactivity of oral 3H-paclitaxel 9 mg/kg; cyclosporin dose 2 × 5 mg/kg oral

cyclosporin E
AUC0-24: 5.96 μg eq. hr/ml
